The test system of this assay is 697B cells, BCR-induced NF-kB luciferase reporter luminescence. The assay is described as follows: B-cell receptor NF-kB reporter inhibition – 697B cells, luciferase luminescence, dose response (AID 489023).

As to `CNC(=O)c1cc(Oc2ccc(NC(=O)Nc3ccc(Cl)c(C(F)(F)F)c3)cc2)ccn1`, the IC50 – broadly, the concentration at which inhibition is half-maximal – is 6.58 µM.

The values are drawn from PubChem BioAssay AID489023 (Sanford-Burnham Center for Chemical Genomics, 2010).
